## CycPeptMPDB entries from one study

Collected by the curators of CycPeptMPDB (Li et al. 2023) from Furukawa et al. 2016, doi:10.1021/acs.jmedchem.6b01246.

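Lipid, pH, incubation time, direction and concentration are not recorded in the data file. The list need not hold all peptides of the study. Peptides that the database sets to -10, its floor, are left out.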

PAMPA measures passive passage through an artificial lipid membrane. Values are log10 P with P in cm/s, so -5 is more permeable than -7.

SMILES	PAMPA (log10 cm/s)
CCCC[C@@H]1NC(=O)[C@H](CC(C)C)N(C)C(=O)CN(Cc2ccccc2)C(=O)[C@H](Cc2ccc3ccccc3c2)NC(=O)CN(CC)C(=O)[C@H]2CCCN2C1=O	-6.08
CCCCCN1CC(=O)N(C)[C@@H](CC(C)C)C(=O)N[C@@H](CCCC)C(=O)N2CCC[C@@H]2C(=O)N(CC(C)C)CC(=O)N[C@@H](Cc2ccccc2)C1=O	-5.97
CCCC[C@@H]1NC(=O)[C@H](CC(C)C)N(C)C(=O)CN(CCCc2cnn(C)c2)C(=O)[C@H](Cc2ccc3ccccc3c2)NC(=O)CN(CCC)C(=O)[C@H]2CCCN2C1=O	-5.53
CCCC[C@@H]1NC(=O)[C@H](CC(C)C)N(C)C(=O)CN(CCCN2CCCC2=O)C(=O)[C@H](Cc2ccccc2)NC(=O)CN(Cc2ccccc2Cn2cccn2)C(=O)[C@H]2CCCN2C1=O	-6.01
CCCCCN1CC(=O)N(C)[C@@H](CC(C)C)C(=O)N[C@@H](CCCC)C(=O)N2CCC[C@@H]2C(=O)N(CCN2CCOCC2)CC(=O)N[C@@H](CC(C)C)C1=O	-5.27
CCCC[C@@H]1NC(=O)[C@H](CC(C)C)N(C)C(=O)CN(CCCc2cnn(C)c2)C(=O)[C@H](CC(C)C)NC(=O)CN(Cc2cc(CC(C)C)on2)C(=O)[C@H]2CCCN2C1=O	-5.33
CCCC[C@@H]1NC(=O)[C@H](CC(C)C)N(C)C(=O)CN(CCOc2ccccc2)C(=O)[C@H](C)NC(=O)CN(Cc2cc(CC(C)C)on2)C(=O)[C@H]2CCCN2C1=O	-5.58
CCCCCN1CC(=O)N(C)[C@@H](CC(C)C)C(=O)N[C@@H](CCCC)C(=O)N2CCC[C@@H]2C(=O)N(CCN2CCOCC2)CC(=O)N[C@@H](Cc2ccccc2)C1=O	-5.28
CCCC[C@@H]1NC(=O)[C@H](CC(C)C)N(C)C(=O)CN(CCOC)C(=O)[C@H](C)NC(=O)CN(CCCOC(C)C)C(=O)[C@H]2CCCN2C1=O	-6.32
CCCC[C@@H]1NC(=O)[C@H](CC(C)C)N(C)C(=O)CN(CCCN2CCCC2=O)C(=O)[C@H](C)NC(=O)CN(CCCCc2ccccc2)C(=O)[C@H]2CCCN2C1=O	-6.22
CCCC[C@@H]1NC(=O)[C@H](CC(C)C)N(C)C(=O)CN(CCCc2cnn(C)c2)C(=O)[C@H](CC(C)C)NC(=O)CN(CCC)C(=O)[C@H]2CCCN2C1=O	-5.59
CCCC[C@@H]1NC(=O)[C@H](CC(C)C)N(C)C(=O)CN(CCCc2cnn(C)c2)C(=O)[C@H](C)NC(=O)CN(CCCCc2ccccc2)C(=O)[C@H]2CCCN2C1=O	-5.62
CCCC[C@@H]1NC(=O)[C@H](CC(C)C)N(C)C(=O)CN(CCCc2ccccc2)C(=O)[C@H](Cc2ccc3ccccc3c2)NC(=O)CN(Cc2ccc3c(c2)OCO3)C(=O)[C@H]2CCCN2C1=O	-9.29
CCCC[C@@H]1NC(=O)[C@H](CC(C)C)N(C)C(=O)CN(CCCc2cnn(C)c2)C(=O)[C@H](CC(C)C)NC(=O)CN(Cc2ccc(Cl)cc2)C(=O)[C@H]2CCCN2C1=O	-5.52
CCCC[C@@H]1NC(=O)[C@H](CC(C)C)N(C)C(=O)CN(CCOc2ccccc2)C(=O)[C@H](C)NC(=O)CN(CCCCc2ccccc2)C(=O)[C@H]2CCCN2C1=O	-6.26
CCCC[C@@H]1NC(=O)[C@H](CC(C)C)N(C)C(=O)CN(CCOc2ccccc2)C(=O)[C@H](Cc2ccc3ccccc3c2)NC(=O)CN(Cc2ccc3c(c2)OCO3)C(=O)[C@H]2CCCN2C1=O	-8.88
CCCC[C@@H]1NC(=O)[C@H](CC(C)C)N(C)C(=O)CN(CCCc2cnn(C)c2)C(=O)[C@H](CC(C)C)NC(=O)CN(CCCCc2ccccc2)C(=O)[C@H]2CCCN2C1=O	-5.83